Measurements taken from PMC10330721, “Chemo-enzymatic synthesis and biological activity evaluation of propenylbenzene derivatives” (Frontiers in Microbiology, 2023).

Test system: human red blood cells (RBCs)
Test: Haemolytic activity assay
Type: cell-based
Details: 1 h, 37°C

isoeugenol [5a]
Percentage of haemolysis (10 µM): 1.379 ± 0.047%
Percentage of haemolysis (20 µM): 1.161 ± 0.047%
Percentage of haemolysis (40 µM): 1.753 ±0.134%
Percentage of haemolysis (60 µM): 1.881 ± 0.020%
Percentage of haemolysis (80 µM): 2.047± 0.080%
Percentage of haemolysis (100 µM): 2.185± 0.261%
